Reference: BigSolDB 2.1

CCCc1nn(C)c2c(=O)[nH]c(-c3cc(S(=O)(=O)N4CCN(C)CC4)ccc3OCC)nc12.O=C(O)CC(O)(CC(=O)O)C(=O)O
Details | solubility (mole fraction)
in PEG-400, 293.2 K | 0.0023
in PEG-400, 298.2 K | 0.00252
in PEG-400, 303.2 K | 0.00293
in PEG-400, 308.2 K | 0.00366
in PEG-400, 313.2 K | 0.00416

in water
Details | solubility (mole fraction)
293.2 K | 9.91e-05
298.2 K | 0.000125
303.2 K | 0.000135
308.2 K | 0.000169
313.2 K | 0.000191
